# In patent US20060142348A1, “Aryl sulfonamide peri-substituted bicyclics for occlusive artery disease” (deCODE Chemistry, Inc., priority 2004, published 2006):
# Sequences of proteins named here, by UniProt entry; tags and fusion partners are left off. A change or cut given only in a name is not applied to a line headed by its entry.
# UniProt P43115: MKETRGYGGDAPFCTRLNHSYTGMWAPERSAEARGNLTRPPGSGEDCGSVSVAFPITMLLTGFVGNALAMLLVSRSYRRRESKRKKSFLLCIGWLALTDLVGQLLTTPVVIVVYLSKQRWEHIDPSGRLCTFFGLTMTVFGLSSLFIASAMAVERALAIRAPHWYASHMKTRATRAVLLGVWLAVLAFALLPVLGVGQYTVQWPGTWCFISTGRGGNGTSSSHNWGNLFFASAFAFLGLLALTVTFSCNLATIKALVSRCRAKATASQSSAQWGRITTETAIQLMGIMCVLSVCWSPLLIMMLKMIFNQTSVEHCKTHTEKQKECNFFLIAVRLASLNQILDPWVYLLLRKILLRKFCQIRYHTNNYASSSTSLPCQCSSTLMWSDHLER
# Molecular target: prostanoid EP3 receptors (Homo sapiens, UniProt P43115)
# Test: binding on prostanoid EP3 receptors (method of Abramovitz et al.)
# Conditions: read-out: Activity (EP3 receptor binding IC50)
# Description: The compounds of the invention may be assayed for their binding on prostanoid EP3 receptors according to the method of Abramovitz et al. [Bioch. Biophys. Actas 1473, 285-293 (2000)]. All of the examples in the tables below have been synthesized, characterized and tested for EP3 receptor binding.
# The compounds of the invention were assayed for their binding on prostanoid EP3 receptors according to the method of Abramovitz et al. [Bioch. Biophys. Acta, 1473, 285-293 (2000)]. […] Compounds with IC50<1 μM are shown as +++; compounds with IC50<1-10 μM are shown as ++; and compounds with IC50>10 μM are shown as +.
row,SMILES,IC50 [µM]
1,Cc1cn(Cc2ccc(Cl)cc2Cl)c2c(-c3nnc(NP(=O)(c4ccccc4)c4ccccc4)o3)cc(F)cc12,> 10
2,Cc1cn(Cc2ccc(Cl)cc2Cl)c2c(-c3nnc(NP(=O)(Oc4ccc(Cl)cc4Cl)Oc4ccc(Cl)cc4Cl)o3)cc(F)cc12,> 10
